Assay results: published antibiotic growth screens (doi:10.1038/s41589-023-01349-8)
The list shows a part of the results.

What follows are molecules tested on A. baumannii ATCC 17978 (assay: relative growth (fraction of control); higher = less inhibition). Settings: 50 µM.

In order of falling relative growth:
1. Cc1cc2nc3ccc(N(C)C)cc3[s+]c2cc1N.[Cl-]  1.57
2. COc1ccc(C#Cc2ccc3c(c2)[C@]2(C(=O)N3)[C@H](C(=O)N3CCc4cc(OC)c(OC)cc4C3)[C@H]3C(=O)O[C@H](c4ccccc4)[C@H](c4ccccc4)N3[C@@H]2c2ccc(OCCO)cc2)cc1  1.31
3. C[C@@H]1O[C@@H](O[C@H]2[C@H](Oc3cc(O)c4c(=O)cc(-c5ccc(O)cc5)oc4c3)O[C@H](CO)[C@@H](O)[C@@H]2O)[C@H](O)[C@H](O)[C@H]1O  1.27
4. CC(=NNC(=O)c1nnn(-c2nonc2N)c1CN1CCC(C)CC1)c1cccc(Br)c1  1.27
5. CC(=O)OCC(CCn1cnc2cnc(N)nc21)COC(C)=O  1.27
6. Nc1cc(C(Cl)=C(Cl)Cl)c(S(N)(=O)=O)cc1S(N)(=O)=O  1.25
7. CC(=O)O[C@@H]1CC2C(C)(C)C(=O)CC[C@]2(C)C2CC[C@@]3(C)[C@H](c4ccoc4)OC(=O)C4OC43[C@@]21C (stereo partly specified)  1.24
8. COCC(=O)Nc1ccc2c(c1)OC[C@@H](C)N(Cc1ccccc1F)C[C@H](C)[C@H](OC)CN(C)C2=O  1.23
9. CC1=C(/C=C/C(C)=C/C=C/C(C)=C/C=C/C=C(C)/C=C/C=C(C)/C=C/C2=C(C)C(=O)C(O)CC2(C)C)C(C)(C)CC(O)C1=O (stereo unspecified)  1.21
10. O=S(=O)([O-])NC1CCCCC1.[Na+]  1.18
11. Cn1cnc(S(=O)(=O)N[C@H]2C=C[C@H](CC(=O)N3CCN(c4ccccc4)CC3)O[C@@H]2CO)c1  1.16
12. C[C@H](O)C#Cc1ccc2c(c1)O[C@@H](CN(C)C(=O)C1CCCCC1)[C@@H](C)CN([C@H](C)CO)S2(=O)=O  1.16
13. Cc1cccc(Oc2ccc(NC(=O)C3CCC(C)CC3)cc2)c1 (stereo unspecified)  1.16
14. COCC(=O)N(C)C[C@@H]1Oc2cc(-c3ccc(OC)cc3)ccc2S(=O)(=O)N([C@H](C)CO)C[C@@H]1C  1.13
15. N[C@](CC1c2ccccc2Oc2ccccc21)(C(=O)O)[C@H]1C[C@@H]1C(=O)O  1.12
16. Cc1cc([N+](=O)[O-])nn1CC(=O)NC(C)C  1.12
17. NC(=O)NCC#Cc1ccc2c(c1)[C@]1(C(=O)N2)[C@H](c2ccccc2OCCO)N2[C@H](c3ccccc3)[C@H](c3ccccc3)OC(=O)[C@H]2[C@@H]1C(=O)O  1.11
18. C[C@H]1CN([C@@H](C)CO)S(=O)(=O)c2ccc(Br)cc2O[C@H]1CN(C)C(=O)C1CCCCC1  1.1
19. CC(/C=C1\SC(=S)N(CC(=O)O)C1=O)=C\c1ccccc1  1.1
20. CC(=O)O[C@]1(C(C)=O)CCC2C3C=C(Cl)C4=CC(=O)[C@@H]5C[C@@H]5[C@]4(C)C3CC[C@@]21C (stereo partly specified)  1.09
21. CC(C)CCCC(C)C1CCC2C3CC[C@H]4C[C@@H](O)CC[C@]4(C)C3CC[C@]12C (stereo partly drawn) [5alpha-CHOLESTANOL]  1.07
22. C=CC[C@@H](CC(=O)N[C@@H](CO)Cc1ccccc1)C(=O)N1CCC[C@@H]1COC(=O)[C@@H](CC=C)NC(=O)OCC1c2ccccc2-c2ccccc21  1.07
23. O=C(Nc1cccc2ccccc12)c1ccc(C(F)(F)F)cc1  1.06
24. Cc1ccc(C(=O)N(CC(N)=O)CC(N)=O)cc1  1.06
25. Clc1ccc2c(c1)[C@H]1C=CC[C@@H]1[C@@H](c1ccccc1)N2  1.05
26. CCOC(=O)[C@H](CCc1ccccc1)N[C@H]1CCc2ccccc2N(CC(=O)O)C1=O.Cl  1.04
27. O=C(C[C@@H]1C=C[C@H](NS(=O)(=O)c2ccc(F)cc2)[C@@H](CO)O1)NCCN1CCCCC1  1.04
28. COCC(=O)Nc1ccc2c(c1)[C@H]1C[C@H](CC(=O)N3CCOCC3)O[C@@H](CO)[C@H]1O2  1.04
29. Cc1cccc(C)c1NC(=O)C1CCCCN1C.Cl (stereo unspecified)  1.04
30. Nc1nonc1C(=O)OCC(=O)N1CCOCC1  1.04
31. c1ccc(Nc2nc(-c3ccccc3)nc3ccccc23)cc1  1.04
32. Cc1cc([C@@H](O)CCCN)ccc1F  1.03
33. CCNC(=O)C[C@@H]1CC[C@@H](NC(=O)C2CCOCC2)[C@@H](CO)O1  1.03
34. CC(C)(C)OC(=O)Nc1ccccc1  1.03
35. O=C(N/N=C/[C@@H](O)[C@H](O)[C@H](O)CO)c1ccccn1  1.03
36. CC(=O)OCC(=O)[C@@]1(O)CCC2C3CCC4=CC(=O)C=CC4(C)C3[C@@H](O)C[C@@]21C (stereo partly specified)  1.03
37. C[C@H]1CN([C@@H](C)CO)S(=O)(=O)c2ccc(-c3ccncc3)cc2O[C@@H]1CN(C)C(=O)c1ccc2c(c1)OCO2  1.02
38. CN(/N=C/c1ccncc1)C1=NCCN1  1.01
39. NCCc1nc(-c2ccccc2)cs1  1
40. Cc1cccc(NC(=O)C[C@H]2NCCNC2=O)c1  1
41. O=C(CN1CCOCC1)N[C@@H]1CC[C@H](CCNC(=O)C2CCC2)O[C@@H]1CO  1
42. C[C@@H](O)C#Cc1ccc2c(c1)O[C@@H](CN(C)C)[C@@H](C)CN([C@@H](C)CO)S2(=O)=O  1
43. COc1ccc(S(=O)(=O)N[C@H]2CC[C@@H](CCNC(=O)CN3CCOCC3)O[C@H]2CO)cc1  1
44. O=C1c2ccccc2C(=O)c2c1ccc(O)c2O  0.996
45. O=c1[nH]c(=O)n(C2C[C@H](O)[C@@H](CO)O2)cc1/C=C/Br (stereo partly specified)  0.992
46. COCC#Cc1ccc2c(c1)O[C@H](CN(C)C(=O)COC)[C@H](C)CN([C@H](C)CO)S2(=O)=O  0.991
47. O=C(O)C(O)C(O)C(=O)O.OCc1cccnc1 (stereo unspecified)  0.982
48. N[C@@H](CC(=O)O)c1cccc(O)c1  0.98
49. CC(=O)Nc1ncc(CN2CCOCC2)s1  0.966
50. O=S(=O)(O)NC1CCCCC1  0.961
51. COc1ccc(COC[C@]23NC(=S)N[C@H](c4ccccc4O2)[C@H]3COC(=O)NCCCCCC(=O)NO)cc1  0.961
52. Cn1c(CNc2ccccc2)cc(=O)n(C)c1=O  0.96
53. C=CCC[C@@H](Cc1ccc(F)cc1)C(=O)O[C@@H](CNC(=O)[C@@H](CC=C)CC(=O)N[C@@H](CO)Cc1ccccc1)c1ccccc1  0.958
54. C[C@@H]1CN(C)S(=O)(=O)CCO1  0.952
55. Cn1cnc(S(=O)(=O)N[C@@H]2CC[C@H](CC(=O)Nc3ccccc3)O[C@@H]2CO)c1  0.952
56. O=C(C[C@H]1CC[C@@H]2[C@H](COC[C@@H](O)CN2Cc2cccc(C(F)(F)F)c2)O1)NCCc1ccncc1  0.95
57. CCCNC(=O)N[C@H]1CC[C@@H](CC(=O)N2CCN(C)CC2)O[C@H]1CO  0.947
58. O=C(C[C@H]1CC[C@@H](NC(=O)c2cnccn2)[C@H](CO)O1)NCc1ccccc1F  0.947
59. Cn1c(=O)c2c(nc(NCCN)n2C)n(C)c1=O  0.946
60. O=C(C[C@@H]1CC[C@@H]2[C@H](COC[C@H](O)CN2S(=O)(=O)c2ccc(Cl)cc2)O1)N[C@@H]1CCN(Cc2ccccc2)C1  0.933
61. COc1c2occc2c(OC)c2c(=O)cc(C)oc12  0.931
62. C[C@@H]1CN([C@@H](C)CO)S(=O)(=O)c2ccc(-c3cccc(F)c3)cc2O[C@H]1CN(C)S(C)(=O)=O  0.929
63. C1CNCCN1  0.927
64. Cc1cc2nc3c(=O)[nH]c(=O)nc-3n(C[C@@H](O)[C@@H](O)[C@@H](O)CO)c2cc1C  0.926
65. O=C(C[C@@H]1CC[C@@H](NC(=O)CN2CCOCC2)[C@H](CO)O1)NCCc1ccccc1  0.923
66. OC[C@H]1O[C@H](O)[C@H](O)[C@@H](O)[C@@H]1O  0.92
67. Cn1c(=O)c2[nH]cnc2n(C)c1=O.NCCN  0.908
68. C[C@@H]1CN([C@@H](C)CO)S(=O)(=O)c2ccc(C#CC3CC3)cc2O[C@@H]1CN(C)C(=O)C1CCCCC1  0.904
69. S=C1NCN(CCc2ccccc2)CN1  0.896
70. CC(=O)Oc1ccc2c(C)cc(=O)oc2c1  0.894
71. COc1ccc(/C=C/C(=O)c2ccccc2)cc1  0.891
72. COc1ccc(C(C)(C)N)cc1OC  0.882
73. CC1=NN2C(=NN[C@@]2(C)c2ccccc2)NC1=O  0.867
74. Cc1ccc(Oc2ccccc2)c(NC(=O)c2ccccc2)c1  0.828
75. Cc1ccccc1-c1ncc(-c2ccc(Br)cc2)o1  0.825
76. CC(=O)c1ccc2c(c1)N(CCCN(C)C)c1ccccc1S2.O=C(O)/C=C\C(=O)O  0.822
77. O=[N+]([O-])c1ncn(Cc2ccccn2)n1  0.819
78. COc1ccc(NC(=O)Nc2ccc3c(c2)[C@@H]2C[C@H](CC(=O)NCc4ccc(-c5ccccc5)cc4)O[C@@H](CO)[C@@H]2O3)cc1  0.814
79. CC(C)CC#Cc1ccc2c(c1)O[C@@H](CN(C)C(=O)C1CCOCC1)[C@@H](C)CN([C@H](C)CO)S2(=O)=O  0.795
80. O=C(C[C@@H]1CC[C@@H]2[C@H](COC[C@H](O)CN2S(=O)(=O)c2ccc(Oc3ccccc3)cc2)O1)NC1CCC1  0.784
81. COc1ccc(S(=O)(=O)N[C@H]2CC[C@H](CC(=O)N3CCC(Cc4ccccc4)CC3)O[C@H]2CO)cc1  0.748
82. CO[C@@H](CN(C)S(=O)(=O)c1ccc(F)cc1)[C@H](C)CN([C@@H](C)CO)S(=O)(=O)c1cccc(Cl)c1  0.726
83. Cc1nc(-c2ccc(Cl)cc2)c(-c2ccccc2)s1  0.657
84. Cl.N=C(N/N=C/c1ccc(Cl)cc1)N/N=C/c1ccc(Cl)cc1  0.358
85. CC[C@@H]1OC(OC(c2c[nH]cn2)C(NC(=O)c2nc(C(CC(N)=O)NCC(N)C(N)=O)nc(N)c2C)C(=O)NC(C)C(O)C(C)C(=O)NC(C(=O)NCCc2nc(-c3nc(C(=O)NCCCCNC(=N)N)cs3)cs2)C(C)O)[C@@H](O[C@H]2O[C@H](CO)[C@@H](O)[C@H](OC(N)=O)[C@@H]2O)[C@@H](C)[C@@H]1C.O=S(=O)(O)O.O=S(=O)(O)O (stereo partly specified) [BLEOMYCIN (bleomycin B2 shown)]  0.167
86. CN1CCN(c2c(F)cc3c(=O)c(C(=O)O)cn(CCF)c3c2F)CC1  0.15
